Experiments:
Assay type in all cases: cell-based
Details in all cases: loss of signal
BCL-2 / PL-Bak = BCL-2 / PL-Bak (Homo sapiens, UniProt P10415); experiment: BCL-2 co-expressed with PL-Bak in U2OS cells, disruption by small molecules (FIG. 7C)
Method: (§1) Interaction of BCL-2 with a peptide test compound (Bim, Bak, and Bax) was studied.
(§2) The native BCL-2 was co-expressed with each of the ProLabel fusions in U2OS cells. Small molecules that are reported to disrupt BCL-2 interactions were then applied to the cells and incubated overnight.
(§3) Cells were transduced with the indicated target PL-fusion and the untagged protein Bcl-2. The cells were treated with the indicated compounds overnight and the remaining target-PL fusion was detected by lysing the cells in the presence of EA and substrate. Luminescence was measured 30 minutes later.

The chains behind the UniProt entries cited, without tags or fusion partners.
UniProt P10415, whole entry: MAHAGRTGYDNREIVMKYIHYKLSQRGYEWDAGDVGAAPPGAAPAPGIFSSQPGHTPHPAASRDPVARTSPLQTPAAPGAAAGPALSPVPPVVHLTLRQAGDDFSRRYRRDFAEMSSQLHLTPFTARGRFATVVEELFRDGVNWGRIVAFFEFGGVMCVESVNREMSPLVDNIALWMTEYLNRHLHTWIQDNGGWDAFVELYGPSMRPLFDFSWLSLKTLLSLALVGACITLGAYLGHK

BCL-2 / PL-Bim = BCL-2 / PL-Bim (Homo sapiens, UniProt P10415); experiment: BCL-2 co-expressed with PL-Bim in U2OS cells, disruption by small molecules (FIG. 7B)
Method: as §1, §2, §3

BCL-2 / PL-Bax = BCL-2 / PL-Bax (Homo sapiens, UniProt P10415); experiment: BCL-2 co-expressed with PL-Bax in U2OS cells, disruption by small molecules (FIG. 7A)
Method: as §1, §2, §3

## CC1(C)CCC(c2ccc(Cl)cc2)=C(CN2CCN(c3ccc(C(=O)NS(=O)(=O)c4ccc(N[C@H](CCN5CCOCC5)CSc5ccccc5)c(S(=O)(=O)C(F)(F)F)c4)cc3)CC2)C1 [ABT-263]
BCL-2 / PL-Bak
  EC50: 41900 nM
BCL-2 / PL-Bim
  EC50: 6.01 nM
BCL-2 / PL-Bax
  EC50: 4.68 nM
